# Experimental data: PubChem BioAssay AID720648 (The Scripps Research Institute Molecular Screening Center, 2013)
# Protein sequences, listed by entry. Tags and fused reporters are not part of them. Residues count along the entry.
# UniProt P78536, 215-824 limits assumed: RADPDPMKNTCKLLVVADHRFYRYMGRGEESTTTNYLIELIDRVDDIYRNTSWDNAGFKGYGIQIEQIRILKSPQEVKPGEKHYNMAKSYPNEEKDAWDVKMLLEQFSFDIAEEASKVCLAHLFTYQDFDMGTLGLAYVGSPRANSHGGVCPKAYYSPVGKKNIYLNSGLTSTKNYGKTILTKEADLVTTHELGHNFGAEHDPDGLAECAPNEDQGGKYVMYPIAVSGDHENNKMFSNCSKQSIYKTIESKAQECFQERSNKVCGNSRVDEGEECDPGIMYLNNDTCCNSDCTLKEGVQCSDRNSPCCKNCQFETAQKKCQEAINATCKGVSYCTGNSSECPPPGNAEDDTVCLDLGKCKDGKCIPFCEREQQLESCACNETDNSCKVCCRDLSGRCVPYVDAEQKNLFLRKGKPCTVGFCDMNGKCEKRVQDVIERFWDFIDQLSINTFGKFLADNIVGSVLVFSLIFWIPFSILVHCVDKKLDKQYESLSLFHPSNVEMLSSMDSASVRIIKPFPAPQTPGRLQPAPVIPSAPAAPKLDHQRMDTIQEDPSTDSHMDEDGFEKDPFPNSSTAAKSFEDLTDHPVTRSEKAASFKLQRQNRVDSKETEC
# The entries are a selection whose mix differs from that of the whole data set. Calls of active or inactive are those of the source.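 How the source made its calls: active means inhibition above the mean of compounds lying between control limits plus 3 SD, set per campaign (cut at about 8.5% in these data); inactive means the rest.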
# Target: Disintegrin and metalloproteinase domain-containing protein 17 (Homo sapiens) (UniProt P78536)
# Assay: ADAM17 inhibitors, primary screen, biochemical, QFRET (AID 720648);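 further: 0% = DMSO-only wells as the low control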
# Conditions: recombinant ADAM17, EDANS/DABCYL FRET peptide cleavage; at 6.95 µM; stronger effect = higher value
row,SMILES,inhibition
1,CCCCn1nnnc1C(c1cccc2ccccc12)N1CCC(n2c(=O)[nH]c3ccccc32)CC1 (stereo not given),inactive: 6.61%
2,COc1cc(C(=O)NCC2(N3CCCCC3)CCCCC2)ccc1OC(F)F,inactive: -1.73%
3,O=C(NCC1(N2CCOCC2)CCCCC1)c1cc(=O)[nH]c2ccccc12,inactive: -2.61%
4,CN(C)c1cccc(C(=O)NCC2(N3CCCCC3)CCCCC2)c1,inactive: -14.2%
5,COc1ccc(CN(CCCl)CCCl)cc1Cl,inactive: -7.02%
6,COC(=O)C1(Nc2ccccc2)CCN(Cc2ccccc2)CC1,inactive: -0.63%
7,CC(C)c1ccc(NC2CCN(C(=O)OC(C)(C)C)CC2)cc1,inactive: -0.26%
8,CCCCn1nnnc1C(c1ccnc2ccccc12)N1CCC(n2c(=O)[nH]c3ccccc32)CC1 (stereo not given),inactive: 2.83%
9,CCC(c1nnnn1C(C)(C)C)N1CCC(n2c(=O)[nH]c3ccccc32)CC1 (stereo not given),inactive: -3.99%
10,O=C(NCC1(N2CCOCC2)CCCCC1)c1cc(F)c(F)cc1Cl,inactive: -5.1%
11,COc1cc(OC)c(C(=O)NCC2(N(C)C)CCCCC2)cc1OC,inactive: -3.82%
12,CN1CCC(Nc2cccc(F)c2)CC1,inactive: -2.72%
13,O=C(NCC1(N2CCCCC2)CCCCC1)c1cncc(Br)c1,inactive: 4.09%
14,CCCOc1ccc(C(=O)NCC2(N(C)C)CCCCC2)cc1OC,inactive: -2.53%
15,Cc1ccc(C(=O)NCC2(N(C)C)CCCCC2)o1,inactive: 3.11%
16,COc1ccc(C(c2nnnn2C2CCCC2)N2CCC(n3c(=O)[nH]c4ccccc43)CC2)cc1 (stereo not given),inactive: 2.79%
17,CCCCn1nnnc1C(CC)N1CCC(n2c(=O)[nH]c3ccccc32)CC1 (stereo not given),inactive: 2.85%
18,O=C(NCC1(N2CCCCC2)CCCCC1)c1cccs1,inactive: -3.27%
19,CCCCn1nnnc1C(c1cccs1)N1CCC(n2c(=O)[nH]c3ccccc32)CC1 (stereo not given),inactive: -1.29%
20,O=C(NCC1(N2CCCCC2)CCCCC1)c1ccc(=O)[nH]c1,inactive: 1.8%
21,COc1ccc(C(=O)NCC2(N3CCCCC3)CCCCC2)c(OC)c1OC,inactive: -3.41%
22,CC(C)(C)OC(=O)N1CCC(N(C(=O)c2ccccc2)c2ccc(F)cc2)CC1,inactive: 0.62%
23,CCC(c1nnnn1C1CCCC1)N1CCC(n2c(=O)[nH]c3ccccc32)CC1 (stereo not given),inactive: -3.86%
24,COc1ccc(C(=O)NCC2(N3CCCCC3)CCCCC2)cc1,inactive: -2.1%
25,Cc1cccc(NC2(C#N)CCN(Cc3ccccc3)CC2)c1,inactive: 3.98%

row,SMILES,inhibition
1,CSc1ccccc1C(=O)NCC1(N2CCCCC2)CCCCC1,inactive: -2.53%
2,O=C(NCC1(N2CCOCC2)CCCCC1)c1cc2ccccc2o1,inactive: -0.54%
3,Cc1cc(C)cc(N(C(=O)c2ccccc2)C2CCN(C(=O)OC(C)(C)C)CC2)c1,inactive: 3.25%
4,O=C(NCC1(N2CCCCC2)CCCCC1)c1ccc(Cl)nc1,inactive: 4.05%
5,O=c1[nH]c2ccccc2n1C1CCN(C(c2ccccc2OC(F)(F)F)c2nnnn2C2CCCCC2)CC1 (stereo not given),inactive: -0.05%
6,CCCCn1nnnc1C(c1ccc(OC)cc1)N1CCC(n2c(=O)[nH]c3ccccc32)CC1 (stereo not given),inactive: -1.83%
7,CCOC(=O)N1CCC(Nc2ccc(OC)cc2)CC1,inactive: -1.69%
8,COc1ccc(Cl)cc1C(=O)NCC1(N2CCOCC2)CCCCC1,inactive: -0.91%
9,O=C(NCC1(N2CCCCC2)CCCCC1)c1ccc(Cl)s1,inactive: -2.11%
10,N#CC1(Nc2ccccc2)CCN(Cc2ccccc2)CC1,inactive: -3.39%
11,O=C(OC1CN2CCC1CC2)C1c2ccccc2Oc2ccccc21 (stereo not given),inactive: -3.27%
12,O=c1[nH]c2ccccc2n1C1CCN(C(c2cc3ccccc3o2)c2nnnn2C2CCCCC2)CC1 (stereo not given),inactive: -4.53%
13,CCOc1ccc(C)cc1CN(CCCl)CCCl,inactive: 2.6%
14,O=C1CCN(Cc2ccccc2)CC1,inactive: -3%
15,CC(C)(C)n1nnnc1C(c1ccccc1)N1CCC(n2c(=O)[nH]c3ccccc32)CC1 (stereo not given),inactive: 0.38%
16,COc1ccc(NC2CCN(CCc3ccccc3)CC2)c(OC)c1,inactive: -1.78%
17,CCOC(=O)N1CCC(Nc2ccc(F)cc2)CC1,inactive: 3.04%
18,CCCCn1nnnc1C(c1cc2ccccc2o1)N1CCC(n2c(=O)[nH]c3ccccc32)CC1 (stereo not given),inactive: 3.07%
19,O=P1(N(CCCl)CCCl)SCCCS1,inactive: -1.03%
20,CCCCOc1ccc(C(=O)NCC2(N3CCOCC3)CCCCC2)cc1,inactive: -2.12%
21,O=C(NCC1(N2CCCCC2)CCCCC1)c1ccc(F)cc1,inactive: -0.3%
22,O=c1[nH]c2ccccc2n1C1CCN(C(c2ccccc2)c2nnnn2C2CCCCC2)CC1 (stereo not given),inactive: -2.58%
23,O=c1[nH]c2ccccc2n1C1CCN(C(c2cccc3ccccc23)c2nnnn2C2CCCC2)CC1 (stereo not given),inactive: -1.14%
24,CCOC(=O)N1CCC(Nc2cccc(C)c2)CC1,inactive: -8.22%
25,COc1cc(C(=O)NCC2(N(C)C)CCCCC2)ccc1OC(F)F,inactive: -5.67%
